Our source for the IC50 values is ChEMBL document CHEMBL1145898, “Molecular docking studies of natural cholinesterase-inhibiting steroidal alkaloids from Sarcococca saligna” (J Med Chem, 2003).

The chains behind the UniProt entries cited, without tags or fusion partners. Where a name states a change or a piece, a line headed by the entry shows the natural chain unless it says otherwise.
UniProt P04058: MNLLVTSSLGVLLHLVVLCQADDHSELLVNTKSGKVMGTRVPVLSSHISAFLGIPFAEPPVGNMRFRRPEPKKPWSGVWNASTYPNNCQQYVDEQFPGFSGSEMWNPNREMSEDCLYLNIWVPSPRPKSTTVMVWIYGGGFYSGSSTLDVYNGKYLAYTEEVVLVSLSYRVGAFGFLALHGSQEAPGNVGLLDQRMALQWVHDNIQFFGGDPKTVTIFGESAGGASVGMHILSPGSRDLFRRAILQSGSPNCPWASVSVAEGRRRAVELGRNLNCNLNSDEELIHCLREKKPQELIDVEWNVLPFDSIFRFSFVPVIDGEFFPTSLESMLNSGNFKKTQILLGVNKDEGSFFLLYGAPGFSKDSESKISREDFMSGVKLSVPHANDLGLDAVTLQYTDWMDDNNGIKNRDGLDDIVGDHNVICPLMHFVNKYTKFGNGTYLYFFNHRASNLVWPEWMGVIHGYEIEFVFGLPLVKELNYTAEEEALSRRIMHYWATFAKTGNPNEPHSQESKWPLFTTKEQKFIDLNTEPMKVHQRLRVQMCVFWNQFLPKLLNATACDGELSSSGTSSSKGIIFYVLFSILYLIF

This assay has as its target Acetylcholinesterase (Torpedo californica, UniProt P04058). Description: In vitro anticholinesterase activity was determined against acetylcholinesterase from Torpedo californica. Set-up: species or system Tetronarce californica.

pIC50: −log10 of the molar value.

What is called pIC50 is −log10 of the IC50, conventionally taken in molar units. The low end stands for a large IC50, the high end for a small IC50. For the compound `C/C=C(\C)C(=O)N[C@H]1CC[C@@]2(C)C(=CC[C@H]3C4=CC[C@H]([C@H](C)N(C)C)[C@@]4(C)CC[C@@H]32)C1=O`, the pIC50 is 5.24.
